Values of other authors as cited in paper PMC8566089 (Bioorganic Chemistry, 2021).

Test system: A431 (squamous skin) cancer cell line
Settings: read-out: IC50 ± SE, A431; cited from earlier work

For `O=c1[nH]cc(F)c(=O)[nH]1` [Compound 5-FU, 5-fluorouracil, reference compound], the IC50 is listed as 23.4 ± 2.09 µM.
